Here are results for one substance from patent US20070161611A1, “POLYCYCLIC PHENOLIC COMPOUNDS AND USE IN TREATING VIRAL INFECTIONS” (priority 2005, published 2007).

For the experiment, the system named is BVDV-NADL. As to the kind of experiment: Protection of MDBK cells from BVDV-induced cytopathicity (MTS/PMS CPE reduction assay). The format is cell-based, Bovine Viral Diarrhea virus. The following applies: MOI of 0.01, monotherapy run in parallel to combination studies. The protocol:
Cell proliferation was monitored using a non-radioactive MTS/PMS assay (MTS: 3-(4,5-dimethylthiazol-2-yl)-5-(3-carboxymethoxy phenyl)-2-(4-sulfophenyl)-2H-tetrazolium (Promega, Madison, Wis.)); (PMS: phenazine methosulfate (Sigma Aldrich, St. Louis, Mo.)). MDBK cells were seeded into 96-well plates at a density of approximately 2×10^4 cells per well. The cultures were incubated 3-24 hours to permit attachment of the cells to the plates prior to infection and addition of compounds. […] A 96-well microtiter spectrophotometer plate reader was used to measure the absorbance at 490 nm after incubation of the 96-well plate for 1 to 4 hours at 37° C. in a humidified, 5% CO2 atmosphere. The mean absorbance in each set of triplicate wells was determined. Antiviral activity was measured as MTS conversion relative to the differential between the conversion for cell (non-infected) and viral (non-drug-treated) controls. The cytopathic effect (CPE) reduction for each concentration of the tested compound, which correlated with antiviral activity, was calculated as follows. % CPE reduction=[(D−ND)/(NI−ND)]×100, where D (drug-treated)=the absorbance of drug-treated cells; ND (non drug-treated)=the absorbance of untreated infected cells; and NI (non-infected)=the absorbance of non-infected cells. […]
A general note: Cytopathic effects are the visible damage that an infection or toxin causes in cultured cells.

For “IFN α-2b: Interferon α-2b (PBL Biomedical Laboratories)”, the “EC50 (monotherapy)” value was 5.79 IU/mL.
